The values below come from patent publication US20230270881A1, “ONCOGENIC TRIM37 IS A TARGETABLE EPIGENETIC DRIVER OF METASTASIS AND LINKS CHEMORESISTANCE AND METASTATIC FATE IN TRIPLE-NEGATIVE BREAST CANCER” (University of Virginia Patent Foundation, priority 2020, published 2023).

Chains of the proteins cited; added tags and fusions are not shown. Residues count along the entry.
UniProt P15328, 25-234: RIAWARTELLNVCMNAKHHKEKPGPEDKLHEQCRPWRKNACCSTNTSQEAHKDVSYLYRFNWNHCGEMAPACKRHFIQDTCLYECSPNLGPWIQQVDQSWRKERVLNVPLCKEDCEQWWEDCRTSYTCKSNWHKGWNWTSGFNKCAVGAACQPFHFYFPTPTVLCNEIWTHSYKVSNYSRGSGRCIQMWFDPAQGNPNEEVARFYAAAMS

The target of this experiment is recombinant FOLR1 (Homo sapiens, UniProt P15328). Nature of the experiment: Binding studies by ELISA. The method, then:
Binding studies by ELISA. Binding specificity and affinity of described Farletuzumab was determined by ELISA using the recombinant FOLR1 as described previously (Shivange et al., 2018). Briefly, recombinant FOLR1 protein was coated on 96-well plate by incubation overnight at 4° C. Different amounts of nanoparticles and free antibody were incubated in the coated plates and binding was detected by two-component peroxidase substrate kit (BD Biosciences).

B1: Fc-linkered Farletuzumab: Farletuzumab (anti-FOLR1) with a cysteine-containing Fc-linkered sequence at the C-terminus of a heavy chain (antibody, chains of the INN, looked up)
heavy: EVQLVESGGGVVQPGRSLRLSCSASGFTFSGYGLSWVRQAPGKGLEWVAMISSGGSYTYYADSVKGRFAISRDNAKNTLFLQMDSLRPEDTGVYFCARHGDDPAWFAYWGQGTPVTVSSASTKGPSVFPLAPSSKSTSGGTAALGCLVKDYFPEPVTVSWNSGALTSGVHTFPAVLQSSGLYSLSSVVTVPSSSLGTQTYICNVNHKPSNTKVDKKV[letters of human IgG1 Fc not shown]
light: DIQLTQSPSSLSASVGDRVTITCSVSSSISSNNLHWYQQKPGKAPKPWIYGTSNLASGVPSRFSGSGSGTDYTFTISSLQPEDIATYYCQQWSSYPYMYTFGQGTKVEIKRTVAAPSVFIFPPSDEQLKSGTASVVCLLNNFYPREAKVQWKVDNALQSGNSQESVTEQDSKDSTYSLSSTLTLSKADYEKHKVYACEVTHQGLSSPVTKSFNRGEC
modifications: C-terminal cysteine-containing linker on heavy chain
Consider B1, for which the “binding affinity, Fc-linkered vs monomeric Farletuzumab” value is recorded as “No significant differences”.
